Measurements taken from EP1053750A1, “Use of proteasome-inhibitor for the induction of programmed cell death (apoptosis)” (Max-Planck-Gesellschaft zur Förderung der Wissenschaften …, priority 1999, dated 2000).
Peptide text beside a SMILES is read from it. * marks the point of attachment. Cbz = O=C(OCc1ccccc1)*; OtBu = CC(C)(C)O*

Experiments:
[1] = target: T1, peptidyl-glutamyl hydrolyzing activity of the proteasome (Bos taurus, UniProt Q3MHN0); test: Proteasomal activity in lysates of treated BAE cells, substrate Z-LLE-AMC; assay type: cell-based, bovine; details: total cell lysates after 15 h incubation of BAECs with 50 µM inhibitor
T1 construct: endogenous in cells; host or cells: primary bovine aortic endothelial cells (BAE), total lysate after 15-16 h treatment of the cells
T1 sequence (Q3MHN0 1-239): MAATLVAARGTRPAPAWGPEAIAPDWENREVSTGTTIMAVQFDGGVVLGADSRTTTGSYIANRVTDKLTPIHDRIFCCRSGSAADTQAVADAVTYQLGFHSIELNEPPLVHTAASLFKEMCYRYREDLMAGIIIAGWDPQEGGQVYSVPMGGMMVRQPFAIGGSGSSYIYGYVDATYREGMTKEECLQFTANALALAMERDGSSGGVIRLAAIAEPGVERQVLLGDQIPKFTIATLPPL
Experimental: Proteasomal activity is reduced in PSI and LLnV treated cell lysates. Lysates prepared from BAE cells incubated for 15 hours with 50 µM of the indicated inhibitors were assayed for their ability to suppress proteasomal function by using Suc-LLVY-AMC as substrate for the chymotryptic activity (a) and Z-LLE-AMC as substrate for the post acidic residue cleaving activity (b). Activities are expressed as the relative fluorescence measured after 45 min of incubation with the substrates and reflect the mean of two independent experiments each performed in duplicate.
BAE cells (1 x 10^6) were plated onto 10 cm plastic dishes and treated for 16 h with either Leupeptin, E64, LLnM, LLnV or PSI (50 µM final concentration) which were diluted form 1000 x DMSO stock solutions. DMSO at a final concentration of 0.1% served as a vehicle-only control. Floating and adherent cells were harvested, lysed by sonication in ice-cold solution of 20 mM Tris-HCI pH 7.5, containing 20% glycerol, centrifuged in a benchtop centrifuge (10 min, 2000 g). The protein concentration of the resulting supernatant was determined by the bicinchoninic acid (BCA) assay (Smith et al., Anal. Biochem. 150 (1985), 76 - 85). […]

p27Kip 1 = test: Western blotting of HUE cell lysates; assay type: cell-based, human; details: 50 µM, immunoblot
Experimental: • a. Analysis of PSI-induced DNA fragmentation by agarose gel electrophoresis. […] Neither caspase inhibitor (Ac-YVAD-CHO 250 µM, lane 4; Ac-DEVD-CHO 250 µM, lane 5) nor DMSO (lane 6) induced the characteristic pattern of DNA fragmentation. M1 and M2: DNA size markers (kb). • b. Immunoblot analysis of HUE cell lysates after incubation with PSI. Lysates of HUE cells (30 µg) which had been treated with 50 µM PSI for the times indicated, were separated on 10 or 12% SDS-polyacryamide gels, transferred to nitrocellulose and probed with antibodies recognizing p27^Kip 1, PARP, β-catenin, bcl-2, bcl-xL and bad as described in Materials and Method. Equal loading was controlled by using an antibody directed against GAPDH enzyme.
HUE cell lysates were prepared from cells treated with 50 µM PSI for the times indicated in Fig. 2B by lysing the cells in 1% SDS, 10 mM Tris-HCl pH 7.5 and denaturation at 95°C for 10 min. Equal amounts of protein were separated by 12% SDS-PAGE, transferred to nitrocellulose filters and blocked over night with TBS (50 mM Tris pH 7.5, 200 mM NaCI, 0.05% Tween 20), containing 5% non-fat dry milk-powder. […]

In the case of CC[C@H](C)[C@H](NC(=O)OCc1ccccc1)C(=O)N[C@@H](CCC(=O)OC(C)(C)C)C(=O)N[C@@H](C)C(=O)N[C@H](C=O)CC(C)C [PSI, carbobenzoxy-L-isoleucyl-y-t-butyl-L-glutamyl-L-alanyl-L-leucinal] (Cbz-IE(OtBu)AL-aldehyde), the “total cellular peptidyl-glutamyl hydrolyzing activity (Z-Leu-Leu-Glu-AMC)” value [1] is reported as “similarly reduced” and the “relative amounts of GAPDH, bc12, bcl-xl and bad” value (p27Kip 1) is reported as “no change”.
